Test results reported in BindingDB's records for 25268943.

How the values were obtained:
Mu-type opioid receptor = Mu-type opioid receptor (Homo sapiens, UniProt P35372); assay: Displacement of [3H]DAMGO from human MOR expressed in HEK293 cells after 60 mins by scintillation counting analysis
[1] = biological target: Kappa-type opioid receptor (Homo sapiens, UniProt P41145); assay: Displacement of [3H]U-69593 from human KOR expressed in HEK293 cells after 60 mins by scintillation counting analysis

Structure (SMILES) | Ki (Mu-type opioid receptor) [nM] | Ki [1] [nM]
N=C(N)NCC(=O)NCC1(Nc2ccccc2)CCN(Cc2ccccc2)CC1 | > 5000 | 1230
N=C(N)NCCNC(=O)C1(Nc2ccccc2)CCN(Cc2ccccc2)CC1 | 201 | 224
N=C(N)NCC(=O)NCC1(Nc2cccc3ccccc23)CCN(Cc2ccccc2)CC1 | 2020 | 705
COc1cc(NC2(CNC(=O)CNC(=N)N)CCN(Cc3ccccc3)CC2)cc(OC)c1 | 688 | 3680
